Laboratory results reported in patent US11814364B2, “Pyridine N-oxide derivatives useful as factor XIa inhibitors” (Janssen Pharmaceutica NV, priority 2021, dated 2023).

Amino acid sequences for entries named in this document (tags omitted). Residues count along the entry.
UniProt P03952, 391-638 limits assumed: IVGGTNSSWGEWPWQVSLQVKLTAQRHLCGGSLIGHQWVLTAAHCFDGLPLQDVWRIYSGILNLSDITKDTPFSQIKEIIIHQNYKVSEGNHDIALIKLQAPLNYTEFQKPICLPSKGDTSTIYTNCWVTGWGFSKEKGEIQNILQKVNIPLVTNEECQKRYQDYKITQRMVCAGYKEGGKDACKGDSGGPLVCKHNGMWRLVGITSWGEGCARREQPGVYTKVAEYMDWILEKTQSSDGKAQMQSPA
UniProt P03952, 20-390 partner limits assumed: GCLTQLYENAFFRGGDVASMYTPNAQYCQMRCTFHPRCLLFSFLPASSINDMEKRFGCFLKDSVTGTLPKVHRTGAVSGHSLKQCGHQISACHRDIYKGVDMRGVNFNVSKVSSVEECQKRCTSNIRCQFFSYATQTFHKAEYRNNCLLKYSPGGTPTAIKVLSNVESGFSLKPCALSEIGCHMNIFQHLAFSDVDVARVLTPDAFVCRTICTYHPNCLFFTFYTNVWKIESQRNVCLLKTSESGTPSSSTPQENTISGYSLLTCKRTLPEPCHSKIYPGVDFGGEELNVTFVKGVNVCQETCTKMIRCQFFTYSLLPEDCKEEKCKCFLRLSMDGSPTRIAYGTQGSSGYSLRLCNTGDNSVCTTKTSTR
UniProt P03951, 388-625 limits assumed: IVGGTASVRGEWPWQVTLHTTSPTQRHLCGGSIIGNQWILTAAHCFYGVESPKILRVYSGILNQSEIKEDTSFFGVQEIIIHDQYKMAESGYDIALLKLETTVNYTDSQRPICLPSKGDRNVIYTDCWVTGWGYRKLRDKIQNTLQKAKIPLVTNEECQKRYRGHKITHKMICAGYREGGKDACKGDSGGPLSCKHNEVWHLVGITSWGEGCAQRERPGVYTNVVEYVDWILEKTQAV
UniProt P03951, 19-387 partner limits assumed: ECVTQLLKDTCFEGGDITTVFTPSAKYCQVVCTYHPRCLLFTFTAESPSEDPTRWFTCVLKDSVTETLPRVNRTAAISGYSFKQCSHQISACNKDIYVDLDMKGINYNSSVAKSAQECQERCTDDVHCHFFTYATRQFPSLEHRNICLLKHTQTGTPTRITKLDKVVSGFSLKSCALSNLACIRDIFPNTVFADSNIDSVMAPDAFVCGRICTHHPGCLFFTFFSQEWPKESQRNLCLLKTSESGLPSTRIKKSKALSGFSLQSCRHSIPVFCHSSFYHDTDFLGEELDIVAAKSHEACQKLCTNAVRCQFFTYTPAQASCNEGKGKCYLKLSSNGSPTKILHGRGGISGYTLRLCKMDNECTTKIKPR

Molecular target: human plasma kallikrein (Homo sapiens, UniProt P03952)
Assay: Kallikrein inhibition FLINT assay with quenched AMC peptide substrate Z-Gly-Pro-Arg-AMC (end point EP or kinetic KIN reads)
Assay type: biochemical
Details: read-out: Kallikrein (EP) IC50; end point read at 30 min

| IC50 | Structure (SMILES) |
| --- | --- |
| 12.6 nM | Nc1ccc(-c2cnn(C(Cc3ccccc3)c3ccc(-c4cc(Cl)ccc4-n4cnnn4)c[n+]3[O-])c2)c(F)n1 (stereo not shown) |

Same assay, conditions: read-out: Kallikrein (KIN) IC50; kinetic reads at 5 min intervals over 30 min

| Structure (SMILES) | IC50 |
| --- | --- |
| [O-][n+]1cc(-c2c(-n3cnnn3)ccc(Cl)c2F)ccc1[C@H](Cc1ccn(CC(F)(F)F)n1)n1cc(-c2ccnc(C(F)(F)F)c2)cn1 | 175 nM |
| [O-][n+]1cc(-c2c(-n3cnnn3)ccc(Cl)c2F)ccc1[C@@H](Cc1ccc(F)cc1)n1cc(-c2nn(C(F)F)nc2Cl)cn1 | 396 nM |
| [O-][n+]1cc(-c2c(-n3cnnn3)ccc(Cl)c2F)ccc1[C@H](Cc1cnn(C(F)F)n1)n1cc(-c2ccnc(C(F)(F)F)c2)cn1 | 626 nM |
| Cn1ncc(CC(c2ccc(-c3c(-n4cnnn4)ccc(Cl)c3F)c[n+]2[O-])n2cc(-c3ccnn3C(F)F)cn2)n1 (stereo not shown) | 63 nM |
| Cn1ncc(C[C@H](c2ccc(-c3c(-n4cc(Cl)nn4)ccc(Cl)c3F)c[n+]2[O-])n2cc(-c3ccnc(C(F)(F)F)c3)cn2)n1 | 35.4 nM |
| Cn1ncc(C[C@H](c2ccc(-c3c(-n4cnnn4)ccc(Cl)c3F)c[n+]2[O-])n2cc(-c3ccnc(C(F)(F)F)c3)cn2)n1 | 5.2 nM |
| CN(CC(c1ccc(-c2c(-n3cnnn3)ccc(Cl)c2F)c[n+]1[O-])n1cc(-c2ccncc2)cn1)C(=O)CCc1ccccc1 (stereo not shown) | 14.3 nM |
| [O-][n+]1cc(-c2c(-n3cnnn3)ccc(Cl)c2F)ccc1C(Cc1cnn(-c2ccccc2)n1)n1cc(-c2ccnn2C(F)F)cn1 (stereo not shown) | 179 nM |
| COC(=O)Nc1ccc(-c2cnn([C@H](CC(C)OC)c3ccc(-c4c(-n5cnnn5)ccc(Cl)c4F)c[n+]3[O-])c2)cc1 (stereo partly shown) | 24.7 nM |
| [O-][n+]1cc(-c2c(-n3cc(Cl)nn3)ccc(Cl)c2F)ccc1[C@@H](Cn1cccn1)n1cc(-c2cnn(C(F)F)n2)cn1 | 133 nM |
| [O-][n+]1cc(-c2c(-n3cnnn3)ccc(Cl)c2F)ccc1[C@H](Cc1ccn(C(F)F)n1)n1cc(-c2ccnc(C(F)(F)F)c2)cn1 | 354 nM |
| [O-][n+]1cc(-c2c(-n3cnnn3)ccc(Cl)c2F)ccc1[C@@H](Cc1ccn(C(F)F)n1)n1cc(-c2ccnc(C(F)(F)F)c2)cn1 | 3.2 nM |
| [O-][n+]1cc(-c2c(-n3cnnn3)ccc(Cl)c2F)ccc1[C@@H](Cc1ccc(F)cc1)n1cc(-c2cnn(C(F)F)n2)cn1 | 27.7 nM |
| O=C(C1CC1CC(c1ccc(-c2c(-n3cnnn3)ccc(Cl)c2F)c[n+]1[O-])n1cc(-c2ccncc2)cn1)N1CCC2(CC2)C1 (stereo not shown) | 690 nM |

Now from value to molecule:

| IC50 | Structure (SMILES) |
| --- | --- |
| 4.4 nM | Nc1ccc(-c2cnn(C(Cc3ccccc3)c3c(F)cc(-c4cc(Cl)ccc4-n4cnnn4)c[n+]3[O-])c2)c(F)n1 (stereo not shown) |
| 36.9 nM | Cn1ncc(CC(c2ccc(-c3c(-n4cnnn4)ccc(Cl)c3F)c[n+]2[O-])n2cc(-c3ccnc(C(F)(F)F)c3)cn2)n1 (stereo not shown) |
| 464 nM | Cn1ncc(C[C@@H](c2ccc(-c3c(-n4cnnn4)ccc(Cl)c3F)c[n+]2[O-])n2cc(-c3ccnc(C(F)(F)F)c3)cn2)n1 |
| 214 nM | [2H]C([2H])(C[C@H](c1ccc(-c2c(-n3cc(C(F)(F)F)nn3)ccc(Cl)c2F)c[n+]1[O-])n1cc(-n2cnnc2C)cn1)OC(F)F |
| 109 nM | O=C(O)C1CN(C(=O)C2CC2CC(c2ccc(-c3c(-n4cnnn4)ccc(Cl)c3F)c[n+]2[O-])n2cc(-c3ccncc3)cn2)CC12CC2 (stereo not shown) |
| 213 nM | [O-][n+]1cc(-c2c(-n3cnnn3)ccc(Cl)c2F)ccc1C(Cc1cnn(-c2ccccc2)n1)n1cc(-c2ccnc(C(F)(F)F)c2)cn1 (stereo not shown) |
| 286 nM | NC1CN(C(=O)C2CC2CC(c2ccc(-c3c(-n4cnnn4)ccc(Cl)c3F)c[n+]2[O-])n2cc(-c3ccncc3)cn2)CC12CC2 (stereo not shown) |
| 36.2 nM | [O-][n+]1cc(-c2c(-n3cnnn3)ccc(Cl)c2F)ccc1[C@@H](CCOC(F)F)n1cc(-c2nn(C(F)F)nc2F)cn1 |
| 30.2 nM | CN(CC(c1ccc(-c2c(-n3cnnn3)ccc(Cl)c2F)c[n+]1[O-])n1cc(-c2cc[n+]([O-])cc2)cn1)C(=O)CCc1ccccc1 (single isomer, unassigned) [P349] |
| 660 nM | [O-][n+]1cc(-c2c(-n3cnnn3)ccc(Cl)c2F)ccc1[C@@H](CC1CC1)n1cc(-c2cnn(C(F)F)n2)cn1 |
| 36 nM | COc1cc(C(Cc2ccn(C(F)F)n2)n2cc(-c3ccc(C(=O)O)c(F)c3)cn2)[n+]([O-])cc1-c1cc(Cl)ccc1C(C)=O (stereo not shown) |
| 2.8 nM | [O-][n+]1cc(-c2c(-n3cnnn3)ccc(Cl)c2F)ccc1[C@@H](Cc1ccn(CC(F)(F)F)n1)n1cc(-c2ccnc(C(F)(F)F)c2)cn1 |

Molecular target: Factor XIa (Homo sapiens, UniProt P03951)
Assay: Factor XIa inhibition FLINT assay with fluorophore-quencher peptide substrate 5Fam-[…]-K5Tamra (end point EP or kinetic KIN reads)
Assay type: biochemical
Details: read-out: FXIa (EP) IC50; end point read at 30 min

| IC50 | Structure (SMILES) |
| --- | --- |
| 2.3 nM | Nc1ccc(-c2cnn(C(Cc3ccccc3)c3ccc(-c4cc(Cl)ccc4-n4cnnn4)c[n+]3[O-])c2)c(F)n1 (stereo not shown) |
